For this assay, the system named is patients having an ocular pain symptom. The assay is described as follows: Number of eye blinks after intraocular administration of selective COX2 inhibitors to ocular pain patients. It counts as in vivo, human. The settings on record: control group = Diclofenac.

From US9629855B2, “Pharmaceutical composition for treatment of eye pain, containing PGE2 synthesis inhibitor” (INDUSTRY-ACADEMIC COOPERATION FOUNDATION, YONSEI UNIVERSITY, priority 2011, dated 2017) come the findings set out here.

Consider `Cc1ccc(-c2cc(C(F)(F)F)nn2-c2ccc(S(N)(=O)=O)cc2)cc1` [Celecoxib], for which the “Number of eye blinks of treated group (n = 3)” value is recorded as 17.
